# According to PMC4383044, “Molecular insights into RNA and DNA helicase evolution from the determinants of specificity for a DEAD-box RNA helicase” (eLife, 2014):
# T1: Mss116 helicase core D1D2, MBP-tagged (Saccharomyces cerevisiae? (paper: yeast), UniProt P15424 88-597)
# T1 sequence: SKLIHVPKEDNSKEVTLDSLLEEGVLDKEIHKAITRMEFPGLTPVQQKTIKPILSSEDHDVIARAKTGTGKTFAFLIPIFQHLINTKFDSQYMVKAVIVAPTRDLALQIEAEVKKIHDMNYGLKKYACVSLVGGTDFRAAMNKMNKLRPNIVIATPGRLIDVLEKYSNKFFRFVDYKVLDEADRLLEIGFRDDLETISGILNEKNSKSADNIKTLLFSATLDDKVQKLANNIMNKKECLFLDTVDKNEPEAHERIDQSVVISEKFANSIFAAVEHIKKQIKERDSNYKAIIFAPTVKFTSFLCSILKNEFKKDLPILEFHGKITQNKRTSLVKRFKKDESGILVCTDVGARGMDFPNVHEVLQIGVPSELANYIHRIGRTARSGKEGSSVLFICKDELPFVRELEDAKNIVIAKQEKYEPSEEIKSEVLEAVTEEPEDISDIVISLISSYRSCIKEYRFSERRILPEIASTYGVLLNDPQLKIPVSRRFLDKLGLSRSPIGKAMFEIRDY
# Target: T1, Mss116 helicase core D1D2, MBP-tagged
# Test: fluorescence anisotropy; ADP-BeFx titrated (value is nucleotide concentration), 2 uM protein, 10 nM RNA; 20 mM Tris-HCl pH 7.5, 100 mM KCl, 10% glycerol, 1 mM DTT, 5 mM MgCl2, 0.1 mg/ml BSA, 22 C, >=1 h; EMSA gels 6% at 4 C in 0.5x TBE; SEC with 200 mM KCl, no BSA
# Details: protein: recombinant; tags: N-terminal MBP (MalE); label: 5' FAM; single strand
binder,measurement,value
"AAAAAAAAAA (ssRNA) [A10-RNA, 5' FAM]",Kd,22 µM
